Values quoted from earlier work in patent publication US9289507B2, “Carriers for improved drug delivery” (Extend Biosciences, Inc., priority 2012, dated 2016).

Details: active vitamin D, bound to DBP; cited from earlier work

vitamin D
time kept in circulation by DBP, on average: 30 days
